# Results taken from US9708590B2, “Crystal structure of human α-N-acetylglucosaminidase” (Shire Human Genetic Therapies, Inc., priority 2010, dated 2017).
# B1: Naglu-kif: recombinant human α-N-acetylglucosaminidase expressed in HT1080 cells treated with kifunensine; high mannose glycans (SEQ ID NO: 3); R3 = research batch #3 (protein, listed as Homo sapiens)
# chain: DEAREAAAVRALVARLLGPGPAADFSVSVERALAAKPGLDTYSLGGGGAARVRVRGSTGVAAAAGLHRYLRDFCGCHVAWSGSQLRLPRPLPAVPGELTEATPNRYRYYQNVCTQSYSFVWWDWARWEREIDWMALNGINLALAWSGQEAIWQRVYLALGLTQAEINEFFTGPAFLAWGRMGNLHTWDGPLPPSWHIKQLYLQHRVLDQMRSFGMTPVLPAFAGHVPEAVTRVFPQVNVTKMGSWGHFNCSYSCSFLLAPEDPIFPIIGSLFLRELIKEFGTDHIYGADTFNEMQPPSSEPSYLAAATTAVYEAMTAVDTEAVWLLQGWLFQHQPQFWGPAQIRAVLGAVPRGRLLVLDLFAESQPVYTRTASFQGQPFIWCMLHNFGGNHGLFGALEAVNGGPEAARLFPNSTMVGTGMAPEGISQNEVVYSLMAELGWRKDPVPDLAAWVTSFAARRYGVSHPDAGAAWRLLLRSVYNCSGEACRGHNRSPLVRRPSLQMNTSIWYNRSDVFEAWRLLLTSAPSLATSPAFRYDLLDLTRQAVQELVSLYYEEARSAYLSKELASLLRAGGVLAYELLPALDEVLASDSRFLLGSWLEQARAAAVSEAEADFYEQNSRYQLTLWGPEGNILDYANKQLAGLVANYYTPRWRLFLEALVDSVAQGIPFQQHQFDKNVFQLEQAFVLSKQRYPSQPRGDTVDLAKKIFLKYYPRWVAGSW
# Assay: Solubility limit observed on concentrating the purified protein (precipitation/crystallization)
# Details: concentrating Q column pool, 20 mM Tris pH=7.5, approximately 100 mM NaCl
molecule,measurement,setting,value
B1,protein concentration at which precipitation appeared,listed as NAGLU-kif,over 1 mg/mL
same,protein concentration at which precipitation appeared,listed as Naglu kif,2 mg/mL
